# From US20140243319A1, “TREATMENTS TARGETING GAMMA-SYNUCLEIN EXPRESSION LEVELS” (GEORGETOWN UNIVERSITY, priority 2011, published 2014)
# Test system: γ-Syn
# Test: Western blot of γ-Syn protein in brain of WKY rats
# Type: in vivo
# Conditions: WKY rat, chronic treatment for 2 weeks
# Source text: In brain, γ-Syn is expressed in presynaptic terminals of monoaminergic neurons, and our lab has shown that this protein can regulate the function of norepinephrine and serotonin transporters. Unlike α-Syn, whose role in neurodegenerative diseases such as Parkinson's disease is well established, a role for γ-Syn in neurodegeneration is not known. γ-Syn is overexpressed in the frontal cortex of the WKY, a rat model of depression. […] The ability of γ-Syn to bind tightly to MTs may be one mechanism by which its overexpression in carcinomas protects cells from the MT actions of chemotherapeutic agents, for example, taxol, nocodazole, vinblastine and colchicine.
structure (smiles),measurement,value
"CNCCCN1c2ccccc2CCc2ccccc21 [DMI, desipramine]",γ-Syn levels in frontal cortex,decrease in γ-Syn levels
